This passage reports AC50 and outcome results from PubChem BioAssay (EPA / NIEHS).

The structures appear in SMILES notation. The entries are a selection whose mix differs from that of the whole data set. The source made the active and inactive calls. Rule for the calls: active = hit-call score of the fitted dose curve at least 0.9, where 1 is the maximum; inactive = score below 0.9.

For orientation: AC50 means the midpoint of the concentration-response curve, whichever way the signal moves.

This assay in a line: ATG_CMV_CIS: Attagene CIS-FACTORIAL HepG2 Assay for human CMV (Internal Marker) (AID 2282928).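 Note: endpoint acts as a background internal control marker rather than a target.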 The settings on record: HepG2 CMV promoter reporter, transcription factor profiling; actives raise or lower the signal. The protocol:
ATG_CIS is a cell-based, multiplexed-readout assay that uses HepG2, a human liver cell line, with measurements taken at 24 hours after chemical dosing in a 24-well plate.ATG_CMV_CIS is one of 52 assay component(s) measured or calculated from the ATG_CIS assay. It is designed to make measurements of mRNA induction, a form of inducible reporter, as detected with fluorescence intensity signals by Reverse transcription polymerase chain reaction (RT-PCR) and Capillary electrophoresis technology.Data from the assay component ATG_CMV_CIS was analyzed into 1 assay endpoint. This assay endpoint, ATG_CMV_CIS, was analyzed with bidirectional fitting relative to DMSO as the negative control and baseline of activity. Using a type of inducible reporter, measures of mRNA for gain or loss-of-signal activity can be used to understand the background control at the transcription factor-level as they relate to the gene . Furthermore, this assay endpoint can be referred to as a secondary readout, because this assay has produced multiple assay endpoints where this one serves a background control function. To generalize the intended target to other relatable targets, this assay endpoint is annotated to the background measurement intended target family, where the subfamily is internal marker.
Human liver HepG2 cells are transiently transfected with multiple reporter transcription units (MRTUs) in 6-well plates using FuGene 6 reagent (Roche; 3 ml FuGene/1 mg DNA). The MRTU constructs are regulated by a cis-regulating element (promoter). […] A major difference between the CIS and TRANS system is that in CIS activities of endogenous TFs are measured, whereas the TRANS assay evaluates changes in activities of exogenous, chimeric NR-Gal4 proteins. […] At the end of 24 hour incubation, total RNA was isolated using TriZol reagent (Invitrogen). The isolated RNA is then reverse-transcribed using oligo(dT) primer and Mo-MLV reverse transcriptase (Invitrogen) with DNAse I (Ambion) treatment for 30 min. The one-tenth of the produced cDNA was amplified by PCR using Taq DNA polymerase (Invitrogen) and two reporter sequence-specific primers. The PCR products were fluorescently labeled by primer extension with 6-arboxyfluorescein (6-FAM) 5'-labeled reporter sequence-specific primer (2 min at 95 C, 20 s at 68 C and 10 min at 72 C) and these products were digested with 5U of HpaI (New England Biolabs) for 2h at 37 C. The fragments were purified using Qiaquick PCR columns (Qiagen), analyzed on an ABI 3130xL genetic analyzer (Applied Biosystems) with peak positions identified by using a set of X-rhodamine (ROX)-labeled MapMarker1000 molecular weight standards (BioVentures). The raw capillary electrophoresis data was processed using Attagraph software (Attagene).
For the molecule `CN(C(=O)Cc1cccc2occc12)[C@H]1CC[C@@]2(CCCO2)C[C@@H]1N1CCCC1`, the half-maximal activity concentration (AC50) was active: 79.1 µM.

Take `CCCCOP(OCCCC)OCCCC`: the molecule was classed as inactive.

Consider `O=[p+]1oc2ccccc2c2ccccc21` (configuration not stated), for which the molecule was classed as inactive.

Consider `N#CSc1ccc([N+](=O)[O-])cc1[N+](=O)[O-]`, for which the result was inactive.

On to `O=C(Cl)Oc1ccccc1`, for which the call was inactive.

Turning to `O=C1C2CC=CCC2C(=O)N1SC(Cl)(Cl)C(Cl)Cl` (configuration not stated), the molecule was called inactive.

On to `CCCCO[P+](=O)OCCCC`, for which the call was inactive.

In the case of `CCCCC(CC)CO[P+](=O)OCC(CC)CCCC` (configuration not stated), the molecule was classed as inactive.

As to `O=C(Cl)OCCOC(=O)Cl`, the result was inactive.

As to `CC(C)OP(=S)(OC(C)C)SCCNS(=O)(=O)c1ccccc1`, the outcome was inactive.

Take `O=[N+]([O-])c1ccc([N+](=O)[O-])cc1`: the concentration at half-maximal activity (AC50) is active: 145 µM.

For the molecule `O=[As]c1ccccc1` (configuration not stated), the concentration at half-maximal activity (AC50) was active: 0.271 µM.

Turning to `O=[P+](Oc1ccccc1)Oc1ccccc1`, the result was inactive.

As to `Cc1cc([N+](=O)[O-])cc([N+](=O)[O-])c1O`, the molecule was classed as inactive.

On to `O=P(Cl)(Oc1ccccc1)Oc1ccccc1`, for which the outcome was inactive.

As to `CC(C)CCCCCCCOP(OCCCCCCCC(C)C)Oc1ccccc1`, the call was inactive.

For the molecule `ClP(Cl)c1ccccc1`, the call was inactive.
